Literature values as cited in patent publication US20220192984A1, “PHARMACEUTICAL COMPOSITIONS COMPRISING OTIC THERAPEUTIC AGENTS AND RELATED METHODS” (Frequency Therapeutics, Inc., priority 2018, published 2022).

Molecular target: LSD1 (Homo sapiens, UniProt O60341)
Conditions: Table 18, LSD1; read-out: pKi or IC50 (converted); cited from earlier work

Q: Which IC50 does the source give for OG-L002 here?
A: 20 nM
